Reference: paper PMC10573712, “Phosphorylation-Assisted Luciferase Complementation Assay Designed to Monitor Kinase Activity and Kinase-Domain-Mediated Protein–Protein Binding” (International Journal of Molecular Sciences, 2023)
Several values for one entry are separate records, joined by “and”; a condition that tells them apart may be missing. Identical values can stand only once.

Amino acid sequences for entries named in this document (tags omitted). A change or cut given only in a name is not applied to a line headed by its entry.
UniProt P45983: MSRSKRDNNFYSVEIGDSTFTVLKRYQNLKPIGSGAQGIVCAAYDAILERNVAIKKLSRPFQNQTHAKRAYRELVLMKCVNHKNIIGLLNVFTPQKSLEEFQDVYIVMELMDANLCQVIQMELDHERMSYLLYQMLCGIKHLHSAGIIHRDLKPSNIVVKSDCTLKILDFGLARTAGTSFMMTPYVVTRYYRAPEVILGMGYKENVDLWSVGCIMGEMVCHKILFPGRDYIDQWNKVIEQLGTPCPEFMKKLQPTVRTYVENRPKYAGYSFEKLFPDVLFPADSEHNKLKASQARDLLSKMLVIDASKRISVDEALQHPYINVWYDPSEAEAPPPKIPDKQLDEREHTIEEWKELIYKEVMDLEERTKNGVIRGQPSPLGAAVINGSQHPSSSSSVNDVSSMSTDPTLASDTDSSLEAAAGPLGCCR
UniProt Q16539, whole entry: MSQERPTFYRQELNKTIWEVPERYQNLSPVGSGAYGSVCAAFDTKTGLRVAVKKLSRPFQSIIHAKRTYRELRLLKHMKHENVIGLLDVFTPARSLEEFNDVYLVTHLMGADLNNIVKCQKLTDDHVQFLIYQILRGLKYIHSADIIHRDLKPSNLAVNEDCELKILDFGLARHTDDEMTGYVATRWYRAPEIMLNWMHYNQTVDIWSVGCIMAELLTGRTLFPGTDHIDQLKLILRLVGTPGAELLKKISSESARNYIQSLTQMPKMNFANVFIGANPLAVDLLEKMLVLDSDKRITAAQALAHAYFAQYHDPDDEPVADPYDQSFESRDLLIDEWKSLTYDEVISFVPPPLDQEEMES

Assays:
Assay type in all cases: biochemical
JNK1 = target: T1, JNK1 (Homo sapiens, UniProt P45983); test: JNK1–PDE4B-Sensor PhALC assay
T1 construct: made in house; host or cells: Rosetta2 (DE3) E. coli
Text: Similar to what was described earlier with the RSK Sensor, to be able to monitor kinase docking for MAPKs, the NanoBit luciferase fragment complementation-based PPI assay concept was modified so that MAPK-docking-mediated phosphorylation of an artificial substrate sensor could also be monitored in a microplate reader. Briefly, a general MAPK phosphorylation target motif (S/TP) was positioned C-terminal from an MAPK-binding D-motif, or N-terminal from an F-motif, and this SENSOR construct was fused with the small fragment of the luciferase enzyme. […]
In the case of the RSK-PhALC assay the reaction mixture contained 0.5 µM 14-3-3-LgBiT RC, 1 µM VF-Sensor, 50 nM RSK2, 40 µM coelenterazine (#301-10 hCTZ, Prolume Ltd., Pinetop, AZ, USA), 1 mM DTT, 6 mg/mL BSA in 1X kinase buffer (50 mM HEPES, pH = 7.4; 100 mM NaCl; 5 mM MgCl2; 5% glycerol; and 0.05% Igepal). […] Measurements were performed using a BioTek Synergy 2 or Cytation 3-plate reader at 25 °C in white 96- or 384-well plates (SPL Life Sciences, Gyeonggi-do, Korea, #30196 or Greiner Microplate, Greiner Bio-One AG, Kremsmünster, Austria, #781904). […] The luminescence signal was monitored for 30–60 min and the slope from the initial linear region was calculated by linear regression. […] To quantify the rate of change in the signal during this early period, we used linear regression analysis to calculate the slope. […]

p38α [1] = target: T2, p38α (Homo sapiens, UniProt Q16539); test: p38α–MEF2A-Sensor PhALC assay (D-groove); conditions: 10 μM inhibitor
T2 construct: made in house; host or cells: Rosetta2 (DE3) E. coli
Text: (§1) Similar to what was described earlier with the RSK Sensor, to be able to monitor kinase docking for MAPKs, the NanoBit luciferase fragment complementation-based PPI assay concept was modified so that MAPK-docking-mediated phosphorylation of an artificial substrate sensor could also be monitored in a microplate reader. Briefly, a general MAPK phosphorylation target motif (S/TP) was positioned C-terminal from an MAPK-binding D-motif, or N-terminal from an F-motif, and this SENSOR construct was fused with the small fragment of the luciferase enzyme. In the recognition construct (RC), a WW domain binding specifically to the phosphorylated MAPK target motif was fused with the large fragment of the luciferase. […] (Figure 3A).
(§2) In the case of the MAPK-PhALC assays the reaction mixture contained 1 µM RC (WW-LgBiT RC), 1 µM MAPK-Sensor (SmBiT-constructs), 0.3–2 nM double-phosphorylated MAPKs, and 60 µM coelenterazine in 1X kinase buffer. […] The reaction was induced by the addition of ATP (at 0.1 or 1 mM final concentration) dissolved in 1X kinase buffer. […] The luminescence signal was monitored for 30–60 min and the slope from the initial linear region was calculated by linear regression. […] To quantify the rate of change in the signal during this early period, we used linear regression analysis to calculate the slope.

p38α [2] = target: T2, p38α; test: p38α–FENEF-Sensor PhALC assay (F-groove); conditions: 10 μM inhibitor
Text: as §1, §2

IC50 (JNK1) | Structure (SMILES) | Effect of inhibitor on kinase activity (JNK1; 10 μM inhibitor) | Effect of inhibitor on kinase activity (p38α [1]) | Effect of inhibitor on kinase activity (p38α [2])
 | CN[C@@H]1C[C@H]2O[C@@](C)([C@@H]1OC)n1c3ccccc3c3c4c(c5c6ccccc6n2c5c31)C(=O)NC4 [staurosporin] | unaffected | unaffected | unaffected
17 nM and 17.3 nM | Cc1cc(NC(=O)c2cccc(NC(=O)/C=C/CN(C)C)c2)ccc1Nc1nccc(-c2cccnc2)n1 [JNK-IN-8] |  |  | 
